Screens (PubChem)
Most compounds without a hit are left out; they make up all but 1.5% or so of the library.
FN deposit inh = fibronectin deposition inhibition | AH1F fibroblasts, Alexa488-fibronectin deposition fluorescence, overnight | inhibition, % at 12.6 µM | 350,000 compounds, 0.086% hits | AID 743247;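 active = mean inhibition across replicates of 30% or more, regardless of how many single replicates reach that level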;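 note: positive control wells lacked labelled fibronectin entirely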
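Material: AH1F fibroblast monolayer depositing Alexa488-labelled fibronectin into matrix / Amount: 10000 AH1F cells per well / Signal: fluorescence 485/525 nm / Medium: DMEM, 2% serum / Compound: single dose, pinned / Incubation: 1 h cell adhesion before compound, then overnight fibronectin incubation / Reagent: Alexa488-FN, 24 nM final / Read-out: inhibition of fibronectin deposition signal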
Cneo AK release = causes C. neoformans cell lysis | adenylate kinase release luminescence, 4 h; normalised: neutral wells 0, clomiphene wells 100 | AID 651654 | lysis activity, % at 15 µM | 360,000 compounds, 0.2% hits;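 active = mean lysis activity across replicates of at least 80%, whatever share of replicates individually reach that level; inactive = mean lysis activity below 80%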
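Assay system: Cryptococcus neoformans yeast cells / Dosing: single-point compound dose / Timing: 4 h at 37 °C static, read 1 h later / Measured by: luminescence of released adenylate kinase using an AK detection reagent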
miR-122 sensor = blocks miR-122 activity in Huh7 sensor cells; activation (reporter increase), % at 12.5 µM; AID 602342; 340,000 compounds, 0.3% hits; Huh7 miR-122 Renilla luciferase sensor, 48 h; neutral wells = 0, positive control = 100;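 active = mean replicate activation score at least 90 and every replicate individually at or above 90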;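 note: higher luciferase means less miR-122 activity so hits act as miR-122 inhibitors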
UUG fidelity = alters start codon recognition fidelity in yeast; S. cerevisiae UUG-firefly luciferase reporter, luminescence/redox ratio; activity score, % at 18.7 µM; actives 0.13% (n = 350,000); AID 602363;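 active = replicate mean at a twofold rise or more, about +100% in these data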;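 also: firefly luciferase made from a UUG start codon reports start codon fidelity; reporter light over untreated wells divided by growth signal over untreated wells; some hits fall short of that in this replicate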
HIV Env fusion = HIV envelope-mediated fusion inhibition; 360,000 compounds, 1.1% hits; HeLa-JRFL Env/CEM21 cell fusion, luciferase; AID 651610; inhibition, % at 12.3 µM;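 active = mean replicate inhibition score of at least 50 and every replicate individually at or above 50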;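 note: 0% = plate neutral controls and 100% = maraviroc near 300 nM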
PGC1a acetyl inh = PGC1a acetylation modulation, inhibitor mode; inhibition, % at 15.6 µM; AID 651687; U2OS PGC1a acetylation, AlphaScreen anti-acetyl-lysine; with virally co-expressed GCN5 acetyltransferase; 350,000 compounds, 0.17% hits;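 active = every replicate shows inhibition of at least 40%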;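 note: 0% = neutral control wells and 100% = positive control wells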
Numbers without * were called inactive; i = inactive; x = no result; [ ] = remark or other dose.

Assay codes – A = FN deposit inh; B = Cneo AK release; C = miR-122 sensor; D = UUG fidelity; E = HIV Env fusion; F = PGC1a acetyl inh
[1] CCCC#Cc1ccc2c(c1)O[C@H](CN(C)C(=O)c1ccccn1)[C@@H](C)CN([C@H](C)CO)S2(=O)=O
  A: -3.6	B: 0.0	C: 128.0*[16.7 µM]	D: 34.8	E: -27.8[16.7 µM]	F: -5.6

[2] CC(C)C#Cc1ccc2c(c1)O[C@@H](CN(C)C(=O)Cc1ccccn1)[C@H](C)CN([C@H](C)CO)S2(=O)=O
  A: -9.9	B: -5.3	C: -4.3[16.7 µM]	D: -1.1	E: -11.9[16.7 µM]	F: 0.6

[3] CCC1S/C(=C(\C#N)C(=O)NCc2ccco2)N(c2ccc(F)cc2)C1=O (stereo not given)
  A: x	B: 1.6	C: 12.9	D: -5.1	E: x	F: 12.8

[4] COc1cc2c(cc1OC)C(=O)N1[C@H]3c4cc(Cl)ccc4OC[C@@H]3[C@H](c3ccccc3)[C@]1(C)C(=O)N2
  A: -0.7	B: 0.1	C: -5.7	D: -14.3	E: 99.1*	F: 2.5

[5] C[C@H]1NC(=O)[C@@]2(C)[C@H](c3ccccc3)[C@H]3COc4ccccc4[C@@H]3N2C1=O
  A: -7.9	B: 4.1	C: -3.3	D: -6.5	E: 92.2*	F: x

[6] C[C@@]12C(=O)Nc3ccc(Cl)cc3C(=O)N1[C@H]1c3cc(Br)ccc3OC[C@@H]1[C@@H]2c1ccccc1
  A: -0.8	B: 3.8	C: -11.9	D: -15.9	E: 44.7	F: 17.7

[7] C[C@@]12C(=O)Nc3ccc(Br)cc3C(=O)N1[C@H]1c3cc(Br)ccc3OC[C@@H]1[C@@H]2c1ccccc1
  A: -1.9	B: 1.3	C: x	D: -22.9	E: 63.1*	F: x

[8] CCCCCN(C(=O)CCC(=O)OCC(=O)N(CC#N)c1ccccc1)c1c(N)n(CCCC)c(=O)[nH]c1=O
  A: -14.2	B: -1.7	C: x	D: -3.5	E: -0.9	F: x

[9] CCN(CC)C1CCN(C(=O)c2ccc3nc(Cc4ccc(OC)cc4)oc3c2)C1 (stereo not given)
  A: -3.0	B: 0.3	C: -5.7	D: -17.9	E: -3.5	F: 1.7

[10] CC1(C)Cc2c(sc(NC(=O)c3ccc(S(=O)(=O)N4CCCCCC4)cc3)c2C#N)C(C)(C)N1
  A: 1.9	B: 0.3	C: x	D: -3.2	E: 62.9*	F: -3.1

From compound 5 up to 6, as listed above:
Assay codes – A = FN deposit inh; B = Cneo AK release; C = miR-122 sensor; D = UUG fidelity; E = HIV Env fusion; F = PGC1a acetyl inh
[5] C[C@H]1NC(=O)[C@@]2(C)[C@H](c3ccccc3)[C@H]3COc4ccccc4[C@@H]3N2C1=O
  A: -7.9	B: 4.1	C: -3.3	D: -6.5	E: 92.2*	F: x

[6] C[C@@]12C(=O)Nc3ccc(Cl)cc3C(=O)N1[C@H]1c3cc(Br)ccc3OC[C@@H]1[C@@H]2c1ccccc1
  A: -0.8	B: 3.8	C: -11.9	D: -15.9	E: 44.7	F: 17.7

(cont.)
Assay codes – A = FN deposit inh; B = Cneo AK release; C = miR-122 sensor; D = UUG fidelity; E = HIV Env fusion; F = PGC1a acetyl inh
[11] Cc1ccc(-c2cnc3c(Nc4cccc(OC(F)(F)C(F)F)c4)nccn23)cc1
  A: -0.9	B: 2.0	C: -0.4	D: 0.1	E: 60.9*	F: x

[12] O=C(c1ccc(Br)cc1)c1cc([N+](=O)[O-])ccc1N1CCCCC1
  A: -2.7	B: 0.0	C: 185.3*	D: 14.7	E: -92.1	F: -21.8

[13] C[C@H]1CN([C@@H](C)CO)C(=O)c2cc(-c3ccccc3)cnc2O[C@@H]1CN(C)C(=O)c1ccccn1
  A: x	B: 105.2*	C: -1.4[16.7 µM]	D: -4.5	E: 12.4[16.7 µM]	F: -1.2

[14] C[C@H]1CN([C@@H](C)CO)C(=O)c2cc(-c3ccccc3)cnc2O[C@@H]1CN(C)C(=O)c1cccc(F)c1
  A: 37.7*	B: x	C: -0.6[16.7 µM]	D: 4.2	E: 12.1[16.7 µM]	F: -10.2

[15] C[C@H](CO)N1C[C@H](C)[C@H](CN(C)C(=O)c2ccccn2)Oc2ncc(-c3ccccc3)cc2C1=O
  A: x	B: 81.2*	C: 15.6[16.7 µM]	D: 10.9	E: -8.4[16.7 µM]	F: 5.5

[16] CC(=O)/C(C#N)=C1\NC(=O)C(Cc2ccccc2Cl)S1 (stereo not given)
  A: -1.2	B: -0.8	C: 2.3	D: -5.5	E: 6.1	F: -0.4

[17] Cc1nn(CC(=O)NCCc2ccccc2)c(=O)c2cccn12
  A: 1.5	B: 2.0	C: -3.9	D: -5.8	E: 5.1	F: -3.2

[18] O=C(/C=C/c1ccccc1Cl)N1CCOCC1
  A: -2.2	B: -1.9	C: -4.2	D: -9.8	E: 5.5	F: -19.3

[19] O=C1C=CCCN1C(=O)/C=C/c1cccc(C(F)(F)F)c1
  A: x	B: -6.2	C: x	D: x	E: -263.6[16.7 µM]	F: 78.4*

[20] COc1cc(/C=C/C(=O)N2CCC=CC2=O)cc(OC)c1OC
  A: 5.0	B: -1.6	C: -16.3	D: -15.9	E: i	F: x

[21] O=C1C=CCCN1C(=O)/C=C/c1ccccc1Cl
  A: x	B: -12.6	C: x	D: x	E: -98.3[16.7 µM]	F: 73.0*

[22] CC(C)CC#Cc1ccc([C@@H]2[C@H](CO)N3CCCCN(C(=O)NC4CCCC4)C[C@@H]23)cc1
  A: x	B: -2.7	C: -17.7[16.7 µM]	D: -1.1	E: x	F: -27.2

[23] Cc1ccc(S(=O)(=O)N(CC(=O)N2CCC(C)CC2)c2cccc(C)c2)cc1
  A: x	B: -0.1	C: 143.6*	D: -2.6	E: 20.2	F: -20.8

[24] COc1ccc(OC)c(N(CC(=O)N2CCC(C)CC2)S(=O)(=O)c2ccc(OC)c(OC)c2)c1
  A: 3.3	B: -0.2	C: 37.3	D: -4.2	E: -153.3	F: 6.6

[25] CC1CCN(C(=O)CN(c2ccc3c(c2)OCCO3)S(=O)(=O)c2ccccc2)CC1
  A: 2.5	B: 0.6	C: 103.6*	D: -2.5	E: 4.7	F: x

[26] COc1ccc(OC)c(N(CC(=O)N2CCC(C)CC2)S(=O)(=O)c2ccccc2)c1
  A: 7.7	B: -0.3	C: 231.6*	D: 7.2	E: 25.5	F: -1.7
